One experiment concerns Hbb th3/+ mice. Briefly: Mouse model of β-thalassemia intermedia (Hbb th3/+ mice). The class given is in vivo. Conditions: 60 mg/kg twice daily for 20-46 days, % change to vehicle. The source says:
Based on these findings and published studies (Schmidt P J, et al, Blood 2013, Guo S, et al, JCI, 2013 and Casu C. et al, Blood, 2016) Fpn inhibitors are examined with respect to its capacity to prevent iron loading and improve erythropoiesis in thalassemia intermedia by restricting iron absorption and reutilization from senescent erythrocytes. The efficacy of Fpn inhibitors is investigated using a mouse model of transfusion-independent β-thalassemia. Mice with heterozygous deletion of β 1 and β 2 globin genes (called Hbb th3/+ mice) develop transfusion-independent anemia, ineffective erythropoiesis, splenomegaly and secondary iron overload in spleen, liver and kidneys. […]
The change of hemoglobin levels in compound-dosed compared to vehicle-treated group reaches 19-22 g/L by the study end. Additional hematologic parameters are measured in terminal blood using automated blood cell analyzer. […]
Additionally, reactive oxygen species (ROS) are detected in bone marrow cells using a fluorescent indicator, CM-H2DCFDA (Thermo Fisher Scientific, Cat. C6827).
Table 10 Efficacy of Ferroportin inhibitors in a mouse model of thalassemia intermedia (Hbb th3/+ mice). […] Data are expressed as difference to the vehicle control group for hemoglobin and as % change to the vehicle control group for all other parameter shown

Experiment [1] deals with beta2-microglobulin deficient (b2m−/−) mice. In words: Prevention of iron overload in beta2-microglobulin deficient mice. The class given is in vivo, mouse. The settings on record: 14 days. As for the experimental part: In addition, feeding 3 week old b2m−/− mice a diet with low iron content (LID) immediately after weaning prevents liver iron loading by age of 6-7 weeks. The efficacy of the Fpn inhibitors to prevent liver iron accumulation in b2m−/− mice is investigated. Three weeks old b2−/− mice fed LID are dosed with either Fpn inhibitor or vehicle (methylcellulose; 10 ml/kg). Mice have access to drinking water supplemented with 1 mM ^58Fe(II)-sulfate and 10 mM ascorbic acid. Dosing of Fpn inhibitor or vehicle followed by exposure to iron-containing water is repeated for 14 days. Mice are euthanized and the liver and spleen iron contents are analyzed by ICP-OES (all iron isotopes) and liver tissue is also analyzed for ^58Fe concentration (ICP-MS).
Livers and spleens are collected after 14 day treatment (p.o.; b.i.d) of beta2-microglobulin deficient mice with the indicated doses of Fpn inhibitors. Total liver and spleen tissue iron concentrations are measured using ICP-OES and ^58Fe liver concentrations are determined with ICP-MS. Relative changes (%) of tissue iron levels are calculated by normalizing the difference between the averages of tissue iron values of animals dosed with the Fpn inhibitors and those of vehicle-treated animals with the average of vehicle controls.

The mark [2] stands for this setting: female ♀, 60 mg/kg p.o. b.i.d., 60 mg/kg.
The mark [3] stands for this setting: male ♂, 60 mg/kg p.o. b.i.d., 60 mg/kg.

Where “and” joins values, the source holds several entries; their conditions need not be identical. Identical values can stand only once. Marks after values point to notes of the source that are not given here.

Regarding `O=C(NCc1ncccc1F)c1csc(CCNCc2nc3ccccc3[nH]2)n1` [Example Compound No. 40], in the experiment on Hbb th3/+ mice, the “Decrease in leukocyte counts by 20/60 mg/kg compound” value was 36% and the “Decrease in serum erythropoietin by 20/60 mg/kg compound” value was 37%. In addition, in experiment [1] (setting [2]), the “Total Liver Iron Reduction (%)” value is 67* % and 66%; the “^58Fe Liver Iron Reduction (%)” value was 80* % and 67%. The “Total Spleen Iron Increase (%)” value in experiment [1] (male ♂, 20 mg/kg p.o. b.i.d.) amounted to 25%. Also, in experiment [1] (setting [3]), the “Total Liver Iron Reduction (%)” value was 69*** % and 85** %; the “Total Spleen Iron Increase (%)” value was 24% and 36%; the “^58Fe Liver Iron Reduction (%)” value was 81*** % and 95** %.

Values taken from patent US11129820B2, “Ferroportin-inhibitor salts” (Vifor (International) AG, priority 2017, dated 2021).
